Data taken from PubChem BioAssay AID624040 (The Scripps Research Institute Molecular Screening Center, 2012).
This is a selection; strong and weak results do not stand in their true shares. Some results for these compounds are left out of this collection, so the calls shown say nothing about other tests. Activity calls are given as the source filed them.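 The calls were made as follows: active = inhibition above a per-plate cutoff, the mean of that plate's test compounds plus 3 SD (cut at about 27% in these data); inactive = the rest.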

The chains behind the UniProt entries cited, without tags or fusion partners.
UniProt P08912, whole entry: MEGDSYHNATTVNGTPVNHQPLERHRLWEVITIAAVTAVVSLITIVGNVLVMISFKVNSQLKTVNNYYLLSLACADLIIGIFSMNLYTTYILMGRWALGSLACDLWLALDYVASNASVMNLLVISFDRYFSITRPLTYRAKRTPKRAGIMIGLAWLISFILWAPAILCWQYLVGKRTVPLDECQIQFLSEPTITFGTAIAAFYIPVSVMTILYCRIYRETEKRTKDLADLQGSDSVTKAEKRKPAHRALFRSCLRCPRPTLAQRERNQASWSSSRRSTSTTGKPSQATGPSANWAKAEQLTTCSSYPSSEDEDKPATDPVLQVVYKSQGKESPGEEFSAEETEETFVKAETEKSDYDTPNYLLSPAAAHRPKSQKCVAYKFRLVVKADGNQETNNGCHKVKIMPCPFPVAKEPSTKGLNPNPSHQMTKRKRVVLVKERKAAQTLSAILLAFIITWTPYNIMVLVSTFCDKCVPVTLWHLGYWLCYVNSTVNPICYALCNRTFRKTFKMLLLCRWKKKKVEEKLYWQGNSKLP

Each compound was assayed against Muscarinic acetylcholine receptor M5 (Homo sapiens) (UniProt P08912) (assay: human M5 muscarinic receptor antagonists, primary screen, CHO cells, Fluo-8 calcium fluorescence (AID 624040;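 also: 0% = acetylcholine EC80 with DMSO and 100% = DMSO without agonist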)). Settings: CHO-hM5 cells, ACh EC80, at 3 µM, hits give high values.

SMILES	inhibition
Cc1ccccc1C(=O)NCC1(N2CCCCC2)CCCCC1	inactive: 1.54%
CN(C)c1ccc(C(=O)NCC2(N(C)C)CCCCC2)cc1	inactive: -2.22%
Cc1cc(C(=O)NCC2(N3CCCCC3)CCCCC2)ccc1[N+](=O)[O-]	inactive: 6.34%
O=C(NCC1(N2CCCCC2)CCCCC1)c1cccc(Br)c1	inactive: 9.2%
COc1ccc(C(=O)NCC2(N(C)C)CCCCC2)cc1	inactive: 2.48%
O=C(NCC1(N2CCCCC2)CCCCC1)c1cc(F)c(F)cc1Cl	inactive: 9.54%
O=C(NCC1(N2CCCCC2)CCCCC1)c1cc([N+](=O)[O-])ccc1Cl	inactive: 10.4%
Cc1ccc(C(=O)NCC2(N3CCCCC3)CCCCC2)cc1	inactive: -4.17%
CC(C)N1C(=O)CC2(CCN(CCOC(=O)C(O)(c3ccccc3)c3ccccc3)CC2)C1=O	inactive: 2.86%
COc1cc(SC)ccc1C(=O)NCC1(N(C)C)CCCCC1	inactive: 5.91%
CN(C)c1cccc(C(=O)NCC2(N(C)C)CCCCC2)c1	inactive: -12.3%
CC(C)Oc1ccc(C(=O)NCC2(N(C)C)CCCCC2)cc1	inactive: 7.15%
COc1ccc(Br)c(C(=O)NCC2(N3CCCCC3)CCCCC2)c1	inactive: -2.22%
COc1cc(C(=O)NCC2(N(C)C)CCCCC2)c([N+](=O)[O-])cc1OC	inactive: -4.65%
CN(C)C1(CNC(=O)c2ccc(Br)cc2)CCCCC1	inactive: 1.48%
O=C(NCC1(N2CCCCC2)CCCCC1)c1cccc(Cl)c1	inactive: 4.18%
COc1cccc(C(=O)NCC2(N3CCCCC3)CCCCC2)c1	inactive: -2.66%
COc1ccc(Cl)cc1C(=O)NCC1(N(C)C)CCCCC1	inactive: 14%
